# Biological target: T1, vWF-degrading protease (Homo sapiens, UniProt Q76LX8)
# T1 sequence (Q76LX8 75-1427): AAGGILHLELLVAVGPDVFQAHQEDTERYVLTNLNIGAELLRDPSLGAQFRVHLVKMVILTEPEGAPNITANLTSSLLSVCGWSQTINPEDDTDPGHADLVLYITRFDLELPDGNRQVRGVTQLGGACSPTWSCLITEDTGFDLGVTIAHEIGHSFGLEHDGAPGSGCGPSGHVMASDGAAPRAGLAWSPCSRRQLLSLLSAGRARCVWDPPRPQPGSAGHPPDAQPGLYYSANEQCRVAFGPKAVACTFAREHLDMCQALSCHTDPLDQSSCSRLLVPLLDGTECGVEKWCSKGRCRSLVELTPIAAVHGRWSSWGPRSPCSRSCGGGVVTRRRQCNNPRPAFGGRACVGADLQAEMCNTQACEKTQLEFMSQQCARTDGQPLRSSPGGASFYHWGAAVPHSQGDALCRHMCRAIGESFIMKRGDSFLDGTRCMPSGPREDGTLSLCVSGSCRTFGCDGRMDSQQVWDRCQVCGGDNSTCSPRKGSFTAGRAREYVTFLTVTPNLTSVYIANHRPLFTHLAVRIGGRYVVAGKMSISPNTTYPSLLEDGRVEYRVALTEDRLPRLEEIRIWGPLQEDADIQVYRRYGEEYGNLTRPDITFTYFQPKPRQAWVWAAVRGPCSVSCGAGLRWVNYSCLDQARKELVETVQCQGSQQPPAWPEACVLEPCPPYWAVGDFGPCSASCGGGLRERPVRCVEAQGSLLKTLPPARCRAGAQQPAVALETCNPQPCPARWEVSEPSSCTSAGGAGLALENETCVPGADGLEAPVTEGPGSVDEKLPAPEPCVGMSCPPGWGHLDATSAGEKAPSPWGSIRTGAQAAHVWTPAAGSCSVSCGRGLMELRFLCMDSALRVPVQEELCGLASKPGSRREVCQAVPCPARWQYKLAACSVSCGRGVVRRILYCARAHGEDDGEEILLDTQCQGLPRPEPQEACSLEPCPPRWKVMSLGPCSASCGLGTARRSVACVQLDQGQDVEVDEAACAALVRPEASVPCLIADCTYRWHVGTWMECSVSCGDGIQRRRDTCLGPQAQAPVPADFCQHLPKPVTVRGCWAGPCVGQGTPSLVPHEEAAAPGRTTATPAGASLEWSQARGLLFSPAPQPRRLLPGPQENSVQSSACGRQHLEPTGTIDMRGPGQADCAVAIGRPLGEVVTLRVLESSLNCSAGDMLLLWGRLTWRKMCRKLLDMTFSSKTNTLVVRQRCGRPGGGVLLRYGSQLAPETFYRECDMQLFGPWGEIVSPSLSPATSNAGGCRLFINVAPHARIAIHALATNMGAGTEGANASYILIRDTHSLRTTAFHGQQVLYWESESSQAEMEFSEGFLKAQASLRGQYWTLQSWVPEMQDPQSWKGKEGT
# Type: biochemical
compound,measurement,value
"N=C(N)NCCC[C@H](NC(=O)[C@@H]1CCCN1C(=O)[C@H](N)Cc1ccccc1)C(=O)CCl [PPACK, Diphenylalanylprolyl arginine-chloromethylketone]",effect on the activity of the vWF-degrading protease,not--or not substantially--affected

# — patent US6068838A, “Purified multimerase” (Baxter Aktiengesellschaft, priority 1996, dated 2000)
